Active and inactive are the calls of the source. The rule behind the calls is not given here.
Experiments:
[1] = target: Mu-type opioid receptor (Homo sapiens, UniProt P35372); test: Antagonist activity at human mu opioid receptor transfected in CHO cells assessed as inhibition of […] [35S]GTPgammaS binding after 60 mins by scintillation counting analysis relative to control; type: functional, cell-based
[2] = species on record: Homo sapiens; test: Selectivity ratio of Ki for human delta opioid receptor to Ki for human kappa opioid receptor

Sequences of proteins named here, by UniProt entry; tags and fusion partners are left off.
UniProt P35372, whole entry: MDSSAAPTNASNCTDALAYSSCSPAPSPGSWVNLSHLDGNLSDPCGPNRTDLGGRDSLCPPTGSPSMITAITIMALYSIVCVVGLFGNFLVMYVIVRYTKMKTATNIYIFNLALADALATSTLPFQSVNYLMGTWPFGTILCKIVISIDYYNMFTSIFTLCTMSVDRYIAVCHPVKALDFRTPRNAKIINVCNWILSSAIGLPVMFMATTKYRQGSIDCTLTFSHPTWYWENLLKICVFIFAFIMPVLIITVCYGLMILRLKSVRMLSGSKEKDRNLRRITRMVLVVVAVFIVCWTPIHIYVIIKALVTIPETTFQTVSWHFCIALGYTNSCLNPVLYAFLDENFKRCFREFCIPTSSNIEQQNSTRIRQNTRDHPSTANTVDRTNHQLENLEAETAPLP

Compound	Imax [1]	Ratio Ki [2]
CNc1nc2cc3c(cc2s1)C[C@@H]1[C@@H]2CCCC[C@]32CCN1CC1CC1	inactive	
Oc1ccc2c(c1)[C@@]13CCCC[C@H]1[C@@H](C2)N(CC1CCC1)CC3 [BUTORPHAN]		75
CCNc1nc2cc3c(cc2s1)C[C@@H]1[C@@H]2CCCC[C@]32CCN1CC1CC1	inactive	

Reference: ChEMBL document CHEMBL3085732, “Synthesis and pharmacological evaluation of aminothiazolomorphinans at the mu and kappa opioid receptors” (J Med Chem, 2013)
